Test results as given in publication PMC13289212, “HIVIL: A human in vitro inflammatory liver model recapitulates immune-associated drug effects with high predictivity” (NAM journal, 2025).

System: IL-6
Experiment: Optimization of stimulator and duration: IL-6 production
Type: cell-based
Conditions: primary human KCs and iKCs
Excerpt: Neither LPS nor IL-2 stimulated IL-6 production from PHHs and iHeps (Fig. 1g). LPS, but not IL-2, stimulated IL-6 production in iKCs and PHKCs, in mono-culture and co-culture with iHeps (Fig. S2a). […] Therefore, LPS was used for subsequent experiments to stimulate inflammation. […] In order to evaluate the time-dependent inflammatory responses, we measured interleukin-6 (IL-6) production within 48 hr post-LPS treatment. IL-6 was only produced at 24 hr and 48 hr, by 10.15- and 4.70-fold compared to vehicle control respectively, but not at 2 hr and 6 hr (Fig. S2b). The difference between 24 hr and 48 hr was non-significant (p=0.41), indicating IL-6 response plateaus after 24 hr.

Substance: interleukin-2 [IL-2]
- stimulation of cytokine production: failed to stimulate
